Values of other authors, collected in patent US20210046085A1, “TREATMENT OF ADVANCED ESTROGEN RECEPTOR POSITIVE BREAST CANCER” (Pantarhei Oncology B.V., priority 2018, published 2021).

Tested on: breast cancer
Conditions: 5.0 mg estriol per day for as long as eleven months; cited from earlier work

C[C@]12CC[C@@H]3c4ccc(O)cc4CC[C@H]3[C@@H]1C[C@@H](O)[C@@H]2O [estriol, estra-1,3,5(10)-triene-3,16α,17β-triol]
Tolerability: well tolerated
